Measurements reported in publication PMC2710984 (International Journal of Peptide Research and Therapeutics, 2006).

By UniProt entry, the sequences of proteins in these tests, tags left out. Residues count along the entry.
UniProt P98170, 241-356 limits assumed: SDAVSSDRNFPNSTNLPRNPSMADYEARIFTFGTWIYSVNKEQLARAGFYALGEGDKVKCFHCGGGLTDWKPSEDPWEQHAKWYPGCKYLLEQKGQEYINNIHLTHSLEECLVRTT

Biological target: XIAP BIR3 (Homo sapiens, UniProt P98170)
Experiment: Peptide–BIR3 binding assay

SMILES | inhibitory activity against Smac–BIR3 interaction (in words) | IC50
CC(C)[C@H](NC(=O)[C@H](C)O)C(=O)N1CCC[C@H]1C(=O)N[C@@H](Cc1ccccc1)C(N)=O [Compound 14, Lac–VPF] | total loss of inhibitory activity | –
CC(C)[C@H](NC(=O)[C@H](C)N)C(=O)N1CCCC[C@H]1C(=O)N[C@@H](Cc1ccccc1)C(N)=O [Compound 21, AV–Pip–F] | – | 710 nM
